Only a part is listed here, and it is no random draw. Some tests of the compounds listed are not included; inactive here does not mean inactive elsewhere. The source made the active and inactive calls.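 The calls were made as follows: active = activation above the mean of all tested compounds plus 3 SD, set per screening run (cut at about 8.8% in these data); inactive = the rest.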
target: Wee1-like protein kinase (Homo sapiens) (UniProt P30291); assay: compounds stabilizing Wee1-luciferase fusion – cell-based, HeLa, Wee1K328M-luciferase, luminescence, primary screen (AID 1321); details: HeLa Luc-Wee1K328M stability, at 5 µM, hits give high values, 100% = proteasome inhibitor MG132 effect;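 also: cells exposed to compound for 20 h before luminescence read; 0% = DMSO alone and 100% = MG132 at 30 µM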

The chains behind the UniProt entries cited, without tags or fusion partners.
UniProt P30291, whole entry K328M: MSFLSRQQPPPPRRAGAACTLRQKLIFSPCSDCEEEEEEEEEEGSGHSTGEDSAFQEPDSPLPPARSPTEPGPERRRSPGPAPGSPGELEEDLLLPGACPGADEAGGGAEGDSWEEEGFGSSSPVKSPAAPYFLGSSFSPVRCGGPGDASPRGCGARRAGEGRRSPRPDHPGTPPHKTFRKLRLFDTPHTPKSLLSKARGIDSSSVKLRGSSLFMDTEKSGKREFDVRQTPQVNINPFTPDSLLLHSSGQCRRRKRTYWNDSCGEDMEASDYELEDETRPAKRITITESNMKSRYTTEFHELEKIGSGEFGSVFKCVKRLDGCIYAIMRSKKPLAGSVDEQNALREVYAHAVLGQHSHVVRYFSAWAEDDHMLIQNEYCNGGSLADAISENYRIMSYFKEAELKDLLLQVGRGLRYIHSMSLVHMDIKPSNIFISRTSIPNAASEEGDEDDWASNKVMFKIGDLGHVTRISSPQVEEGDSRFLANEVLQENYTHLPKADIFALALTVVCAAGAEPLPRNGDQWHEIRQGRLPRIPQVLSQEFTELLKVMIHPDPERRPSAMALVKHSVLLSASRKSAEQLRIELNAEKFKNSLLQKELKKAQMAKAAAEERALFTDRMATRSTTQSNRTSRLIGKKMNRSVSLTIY

| Compound | reporter increase |
| --- | --- |
| O=C(NCC1(N2CCCCC2)CCCCC1)c1cc([N+](=O)[O-])ccc1Cl | inactive: -0.32% |
| CC(C)N1C(=O)CC2(CCN(CCOC(=O)C(O)(c3ccccc3)c3ccccc3)CC2)C1=O | inactive: -1.28% |
| CCN(CC)CC(C)C(C)OC(=O)C(O)(c1ccccc1)c1ccccc1 (stereo unspecified) | inactive: 0.93% |
| CN(C)C1CCCC1OC(=O)C(O)(c1ccccc1)c1ccccc1 (stereo unspecified) | inactive: 1.13% |
| Cc1ccccc1C(=O)NCC1(N2CCCCC2)CCCCC1 | inactive: -0.59% |
| CCN1CCCC(OC(=O)C2(O)c3ccccc3C=Cc3ccccc32)C1 (stereo unspecified) | inactive: 6.55% |
| C=CCN1CCN(CCOC(=O)C(O)(c2ccccc2)c2ccccc2)CC1 | inactive: -3.36% |
| COc1cccc(C(=O)NCC2(N3CCCCC3)CCCCC2)c1 | inactive: -1.13% |
| O=C(OC1CN2CCC1CC2)C(CO)(c1ccccc1)c1ccccc1 (stereo unspecified) | inactive: 3.98% |
| CN(C)c1cccc(C(=O)NCC2(N(C)C)CCCCC2)c1 | inactive: 2.03% |
| COc1ccc(Br)c(C(=O)NCC2(N3CCCCC3)CCCCC2)c1 | inactive: 6.67% |

From PubChem BioAssay AID1321 (The Scripps Research Institute Molecular Screening Center, 2008)
